These results are taken from publication PMC2948013 (PLoS ONE, 2010).

First the molecules themselves.
B1: mDia1 DID-DD, residues 131–458 (domain or fragment, mouse (murine), UniProt O08808 131-458, looked up)
chain: ESSRSAMMYIQELRSGLRDMHLLSCLESLRVSLNNNPVSWVQTFGAEGLASLLDILKRLHDEKEETSGNYDSRNQHEIIRCLKAFMNNKFGIKTMLETEEGILLLVRAMDPAVPNMMIDAAKLLSALCILPQPEDMNERVLEAMTERAEMDEVERFQPLLDGLKSGTSIALKVGCLQLINALITPAEELDFRVHIRSELMRLGLHQVLQELREIENEDMKVQLCVFDEQGDEDFFDLKGRLDDIRMEMDDFGEVFQIILNTVKDSKAEPHFLSILQHLLLVRNDYEARPQYYKLIEECVSQIVLHKNGTDPDFKCRHLQIDIERLVDQ
notes: mDia1 (murine Dia1, diaphanous-related formin), residues 131-458: DID and DD domains; Tag removed with TEV protease after mixing with the C-terminal fragment; The final model holds residues 134-451; also called N-terminus; source: E. coli BL21 (DE3), purified (Ni-chelating column; N+C complex by anion exchange, HiTrapQ)
B2: mDia1 N-terminal fragment, residues 63-462 (domain or fragment, mouse (murine), UniProt O08808 63-462, looked up)
chain: SASYGDDPTAQSLQDISDEQVLVLFEQMLVDMNLNEEKQQPLREKDIVIKREMVSQYLHTSKAGMNQKESSRSAMMYIQELRSGLRDMHLLSCLESLRVSLNNNPVSWVQTFGAEGLASLLDILKRLHDEKEETSGNYDSRNQHEIIRCLKAFMNNKFGIKTMLETEEGILLLVRAMDPAVPNMMIDAAKLLSALCILPQPEDMNERVLEAMTERAEMDEVERFQPLLDGLKSGTSIALKVGCLQLINALITPAEELDFRVHIRSELMRLGLHQVLQELREIENEDMKVQLCVFDEQGDEDFFDLKGRLDDIRMEMDDFGEVFQIILNTVKDSKAEPHFLSILQHLLLVRNDYEARPQYYKLIEECVSQIVLHKNGTDPDFKCRHLQIDIERLVDQMIDK
notes: mDia1 (murine Dia1), N-terminal residues 63-462
B3: mDia1 GBD-DID-DD, residues 72–458 (domain or fragment, mouse (murine), UniProt O08808 72-458, looked up)
chain: AQSLQDISDEQVLVLFEQMLVDMNLNEEKQQPLREKDIVIKREMVSQYLHTSKAGMNQKESSRSAMMYIQELRSGLRDMHLLSCLESLRVSLNNNPVSWVQTFGAEGLASLLDILKRLHDEKEETSGNYDSRNQHEIIRCLKAFMNNKFGIKTMLETEEGILLLVRAMDPAVPNMMIDAAKLLSALCILPQPEDMNERVLEAMTERAEMDEVERFQPLLDGLKSGTSIALKVGCLQLINALITPAEELDFRVHIRSELMRLGLHQVLQELREIENEDMKVQLCVFDEQGDEDFFDLKGRLDDIRMEMDDFGEVFQIILNTVKDSKAEPHFLSILQHLLLVRNDYEARPQYYKLIEECVSQIVLHKNGTDPDFKCRHLQIDIERLVDQ
notes: mDia1 (murine Dia1), residues 72-458: G domain, DID and DD domains; also called G-DID-DD; source: E. coli BL21 (DE3), purified; analogous procedures to the 131-458 fragment
B4: mDia1 DID-DD-CC, residues 131–477 (domain or fragment, mouse (murine), UniProt O08808 131-477, looked up)
chain: ESSRSAMMYIQELRSGLRDMHLLSCLESLRVSLNNNPVSWVQTFGAEGLASLLDILKRLHDEKEETSGNYDSRNQHEIIRCLKAFMNNKFGIKTMLETEEGILLLVRAMDPAVPNMMIDAAKLLSALCILPQPEDMNERVLEAMTERAEMDEVERFQPLLDGLKSGTSIALKVGCLQLINALITPAEELDFRVHIRSELMRLGLHQVLQELREIENEDMKVQLCVFDEQGDEDFFDLKGRLDDIRMEMDDFGEVFQIILNTVKDSKAEPHFLSILQHLLLVRNDYEARPQYYKLIEECVSQIVLHKNGTDPDFKCRHLQIDIERLVDQMIDKTKVEKSEAKATELEK
notes: mDia1 (murine Dia1), residues 131-477: DID, DD and a portion of the coiled-coil region; also called long N; source: E. coli BL21 (DE3), purified; analogous procedures to the 131-458 fragment
B5: mDia1 G-DID-DD-CC, residues 63–518 (domain or fragment, mouse (murine), UniProt O08808 63-518, looked up)
chain: SASYGDDPTAQSLQDISDEQVLVLFEQMLVDMNLNEEKQQPLREKDIVIKREMVSQYLHTSKAGMNQKESSRSAMMYIQELRSGLRDMHLLSCLESLRVSLNNNPVSWVQTFGAEGLASLLDILKRLHDEKEETSGNYDSRNQHEIIRCLKAFMNNKFGIKTMLETEEGILLLVRAMDPAVPNMMIDAAKLLSALCILPQPEDMNERVLEAMTERAEMDEVERFQPLLDGLKSGTSIALKVGCLQLINALITPAEELDFRVHIRSELMRLGLHQVLQELREIENEDMKVQLCVFDEQGDEDFFDLKGRLDDIRMEMDDFGEVFQIILNTVKDSKAEPHFLSILQHLLLVRNDYEARPQYYKLIEECVSQIVLHKNGTDPDFKCRHLQIDIERLVDQMIDKTKVEKSEAKATELEKKLDSELTARHELQVEMKKMENDFEQKLQDLQGEKDALDSEK
notes: mDia1 (murine Dia1), residues 63-518: G domain, DID, DD and portions of the coiled-coil domain; source: complex with the C-terminal fragment co-purified as described in Materials and Methods
B6: mDia1 FH2-DAD, residues 736–1200 (domain or fragment, mouse (murine), UniProt O08808 736-1200, looked up)
chain: FGFGVPAAPVLPFGLTPKKVYKPEVQLRRPNWSKFVAEDLSQDCFWTKVKEDRFENNELFAKLTLAFSAQTKTSKAKKDQEGGEEKKSVQKKKVKELKVLDSKTAQNLSIFLGSFRMPYQEIKNVILEVNEAVLTESMIQNLIKQMPEPEQLKMLSELKEEYDDLAESEQFGVVMGTVPRLRPRLNAILFKLQFSEQVENIKPEIVSVTAACEELRKSENFSSLLELTLLVGNYMNAGSRNAGAFGFNISFLCKLRDTKSADQKMTLLHFLAELCENDHPEVLKFPDELAHVEKASRVSAENLQKSLDQMKKQIADVERDVQNFPAATDEKDKFVEKMTSFVKDAQEQYNKLRMMHSNMETLYKELGDYFVFDPKKLSVEEFFMDLHNFRNMFLQAVKENQKRRETEEKMRRAKLAKEKAEKERLEKQQKREQLIDMNAEGDETGVMDSLLEALQSGAAFRRKRG
notes: mDia1 (murine Dia1, diaphanous-related formin), residues 736-1200: FH2 and DAD domains, FH1 omitted; Tag removal is described for the N+C complexes; The final model holds residues 745-1198; also called C-terminus; source: E. coli BL21 (DE3), purified (Ni-chelating column; N+C complex by anion exchange, HiTrapQ)

Series [1] addresses B6. Kind of series: SEC-MALS; Superose 6, 1 mg/ml, 0.3 ml injected, 0.3 ml/min, 20 mM HEPES pH 7.4, 150 mM NaCl, 1 mM EDTA, 2 mM DTT; N+C complexes isolated by anion exchange (HiTrapQ) beforehand; C-terminal fragment also run alone. The conditions noted are these: both partners purified. In general terms: In gel filtration, larger molecules generally elute earlier.
Series [2] concerns the target B6. Kind of series: native gel or EMSA; non-denaturing PAGE, 4–15% gradient gel on a PhastSystem; complexes co-purified or combined from separately purified fragments; analysed on Day 0 and after five days. To be noted: both partners purified.
Series [3] deals with the molecule itself. Kind of series: SEC-MALS; Superose 6, 1 mg/ml, 0.3 ml injected, 0.3 ml/min, 20 mM HEPES pH 7.4, 150 mM NaCl, 1 mM EDTA, 2 mM DTT; N+C complexes isolated by anion exchange (HiTrapQ) beforehand; C-terminal fragment also run alone.

For the molecule B1, in series [1], the “stoichiometry N” value was 1 N-terminal chain per C-terminal chain (4:4 complex).
Consider B2, for which the binding result in series [2] is “binds”.
With B3, in series [1], the “stoichiometry N” value is 1 N-terminal chain per C-terminal chain (4:4 complex).
For B4, the “stoichiometry N” value in series [1] was 1 N-terminal chain per C-terminal chain (2:2 complex).
For the molecule B5, the binding result in series [2] is reported as “binds”.
Turning to B6, the binding result in series [3] is recorded as “binds”.
